The assay concerns the target T1, CHK1 (Homo sapiens, UniProt O14757).
T1 sequence (O14757 1-476): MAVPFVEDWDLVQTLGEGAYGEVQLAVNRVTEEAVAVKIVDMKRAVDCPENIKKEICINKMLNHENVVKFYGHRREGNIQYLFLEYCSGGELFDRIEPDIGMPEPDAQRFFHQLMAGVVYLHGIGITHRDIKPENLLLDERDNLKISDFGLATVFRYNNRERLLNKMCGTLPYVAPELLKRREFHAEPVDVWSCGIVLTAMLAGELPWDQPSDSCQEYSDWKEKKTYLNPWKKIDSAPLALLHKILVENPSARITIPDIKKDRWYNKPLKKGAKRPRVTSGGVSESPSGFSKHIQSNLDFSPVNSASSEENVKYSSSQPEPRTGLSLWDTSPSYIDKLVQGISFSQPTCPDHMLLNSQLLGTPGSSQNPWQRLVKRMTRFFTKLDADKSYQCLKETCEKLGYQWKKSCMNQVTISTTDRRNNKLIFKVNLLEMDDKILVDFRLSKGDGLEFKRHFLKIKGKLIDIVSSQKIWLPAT
As to the kind of experiment: CHK1 kinase function inhibition (DELFIA assay, phosphorylation of CDC25C peptide). The format is biochemical. The following applies: CHK1 kinase function inhibition IC50, CHK1 1 nM, ATP 30 μM, 30 minutes at room temperature.

SMILES strings stand for the structures. “And” between values parts separate entries of the source, which are not always exact repeats. Identical values can stand only once.

As to `N#Cc1cnc(Nc2cc3c(cn2)ncn3CC2CCNCC2)cn1` [BB-018, 5-(1-(piperidin-4-ylmethyl)-1H-imidazo[4,5-c]pyridin-6-ylamino)pyrazine-2-carbonitrile], the IC50 was 1 to 10 µM. The same measure for `N#Cc1ncc(Nc2cc3ccccc3cn2)nc1OC1CCCNC1` (stereo not shown) [AA-015]: no more than 1 µM. The same measure for `N#Cc1cnc(Nc2cc3cccc(Cl)c3cn2)cn1` [AA-004]: no more than 1 µM.

On to `N#Cc1cnc(Nc2cc3ccccc3cn2)cn1` [AA-002], for which the IC50 was 1 to 10 µM and 1.8 µM.

These data come from US8530468B2 (Cancer Research Technology Limited, priority 2008, dated 2013).
